Results from patent publication US10722512B2, “Combinations of histone deacetylase inhibitors and either HER2 inhibitors or PI3K inhibitors” (Acetylon Pharmaceuticals, Inc., priority 2013, dated 2020).

Biological target: T1, HDAC6 (Homo sapiens, UniProt Q9UBN7)
T1 construct: purchased BPS Biosciences
T1 sequence (Q9UBN7 1-1215): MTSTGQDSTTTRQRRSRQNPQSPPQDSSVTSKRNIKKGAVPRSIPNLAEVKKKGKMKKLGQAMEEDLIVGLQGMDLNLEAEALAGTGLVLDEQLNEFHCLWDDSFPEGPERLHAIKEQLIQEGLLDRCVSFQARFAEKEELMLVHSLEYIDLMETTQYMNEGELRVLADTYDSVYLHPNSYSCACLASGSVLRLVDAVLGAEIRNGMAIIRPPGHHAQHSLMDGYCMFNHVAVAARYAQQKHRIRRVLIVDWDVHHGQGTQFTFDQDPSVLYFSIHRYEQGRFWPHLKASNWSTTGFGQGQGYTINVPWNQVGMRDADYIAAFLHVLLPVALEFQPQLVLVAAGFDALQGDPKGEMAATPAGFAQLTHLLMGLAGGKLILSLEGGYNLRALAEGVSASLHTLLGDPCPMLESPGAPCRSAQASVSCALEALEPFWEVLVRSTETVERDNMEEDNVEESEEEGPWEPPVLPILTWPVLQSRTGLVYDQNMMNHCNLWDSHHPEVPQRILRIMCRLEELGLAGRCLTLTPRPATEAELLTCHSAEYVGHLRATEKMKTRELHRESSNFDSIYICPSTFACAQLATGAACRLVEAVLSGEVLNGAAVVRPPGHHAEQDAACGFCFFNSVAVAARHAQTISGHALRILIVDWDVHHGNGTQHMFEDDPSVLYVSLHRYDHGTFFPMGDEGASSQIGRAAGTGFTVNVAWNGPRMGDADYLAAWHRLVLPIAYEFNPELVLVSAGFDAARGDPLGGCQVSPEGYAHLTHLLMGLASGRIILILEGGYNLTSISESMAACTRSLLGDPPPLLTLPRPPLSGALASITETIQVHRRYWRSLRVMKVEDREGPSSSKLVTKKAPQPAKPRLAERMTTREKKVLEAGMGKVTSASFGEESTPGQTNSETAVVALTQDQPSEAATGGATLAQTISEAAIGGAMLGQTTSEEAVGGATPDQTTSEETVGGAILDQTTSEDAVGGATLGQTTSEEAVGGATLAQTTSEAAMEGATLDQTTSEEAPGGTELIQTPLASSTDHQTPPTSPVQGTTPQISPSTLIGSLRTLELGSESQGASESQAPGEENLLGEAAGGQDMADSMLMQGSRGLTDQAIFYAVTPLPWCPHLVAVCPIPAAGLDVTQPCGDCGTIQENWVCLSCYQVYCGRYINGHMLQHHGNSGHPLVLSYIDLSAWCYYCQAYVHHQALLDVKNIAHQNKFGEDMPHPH
Assay: HDAC enzyme assays
Format: biochemical
Experimental: Compounds for testing were diluted in DMSO to 50 fold the final concentration and a ten point three fold dilution series was made. […] The final enzyme concentrations used in these assays were 3.3 ng/ml (HDAC1), 0.2 ng/ml (HDAC2), 0.08 ng/ml (HDAC3) and 2 ng/ml (HDAC6). […] Five μl of compound and 20 μl of enzyme were added to wells of a black, opaque 384 well plate in duplicate. Enzyme and compound were incubated together at room temperature for 10 min. Five μl of substrate was added to each well, the plate was shaken for 60 seconds and placed into a Victor 2 microliter plate reader. The development of fluorescence was monitored for 60 min. and the linear rate of the reaction was calculated. The IC50 was determined using Graph Pad Prism by a four parameter curve fit.

## O=C(CCCCCCNC(=O)c1cnc(N(c2ccccc2)c2ccccc2)nc1)NO [Compound A, 2-(diphenylamino)-N-(7-(hydroxyamino)-7-oxoheptyl) pyrimidine-5-carboxamide]
HDAC6
  potency as HDAC6 selective inhibitor: low nM potency
HDAC6 over Class I HDACs (HDAC1, 2 and 3)
  selectivity of HDAC6 over class I HDACs: 13 fold
